± gives the uncertainty stated by the source.
B1: X-ray repair cross-complementing protein 6, residues 558 to 609; numbered along this chain, P12956 (parent)
chain: EYSEEELKTHISKGTLGKFTVPMLKEACRAYGLKSGLKKQELLEALTKHFQD

Variants of: B1
Assay: abundance fitness (aPCA) (normalised: wild type 0, dead -1); higher = more abundant; growth selection in yeast, the domain comes from the species named
Conditions: Homo sapiens

Compared with EYSEEELKTHISKGTLGKFTVPMLKEACRAYGLKSGLKKQFLLEALTKHFQD [E41F], EYSEEELKTHISKGTLGKFTVPMLKEACRAYGLKSGLKKQGLLEALTKHFQD [E41G] is higher in abundance fitness: -0.59 ± 0.052 for the first, -0.34 ± 0.042 for the second.

Compared with EYSEEELKTHISKGTLGKFTVPMLKEACRAYGLKSGLKKQHLLEALTKHFQD [E41H], EYSEEELKTHISKGTLGKFTVPMLKEACRAYGLKSGLKKQILLEALTKHFQD [E41I] is lower in abundance fitness: -0.518 ± 0.1 for the first, -0.694 ± 0.056 for the second.

Going from EYSEEELKTHISKGTLGKFTVPMLKEACRAYGLKSGLKKQKLLEALTKHFQD [E41K] to EYSEEELKTHISKGTLGKFTVPMLKEACRAYGLKSGLKKQLLLEALTKHFQD [E41L], the abundance fitness rises from -0.506 ± 0.083 to -0.346 ± 0.058.

EYSEEELKTHISKGTLGKFTVPMLKEACRAYGLKSGLKKQMLLEALTKHFQD [E41M] and EYSEEELKTHISKGTLGKFTVPMLKEACRAYGLKSGLKKQNLLEALTKHFQD [E41N] are within error of each other in abundance fitness: -0.294 ± 0.063 for the first, -0.245 ± 0.089 for the second.

Going from EYSEEELKTHISKGTLGKFTVPMLKEACRAYGLKSGLKKQPLLEALTKHFQD [E41P] to EYSEEELKTHISKGTLGKFTVPMLKEACRAYGLKSGLKKQQLLEALTKHFQD [E41Q], the abundance fitness rises from -0.808 ± 0.083 to -0.16 ± 0.08.

Compared with EYSEEELKTHISKGTLGKFTVPMLKEACRAYGLKSGLKKQRLLEALTKHFQD [E41R], EYSEEELKTHISKGTLGKFTVPMLKEACRAYGLKSGLKKQSLLEALTKHFQD [E41S] is higher in abundance fitness: -0.576 ± 0.042 for the first, -0.424 ± 0.048 for the second.

Compared with EYSEEELKTHISKGTLGKFTVPMLKEACRAYGLKSGLKKQVLLEALTKHFQD [E41V], EYSEEELKTHISKGTLGKFTVPMLKEACRAYGLKSGLKKQWLLEALTKHFQD [E41W] is lower in abundance fitness: -0.506 ± 0.043 for the first, -0.826 ± 0.062 for the second.

EYSEEELKTHISKGTLGKFTVPMLKEACRAYGLKSGLKKQYLLEALTKHFQD [E41Y] and EYSEEELKTHISKGTLGKFTVPMLKEACRAYGLKSGLKKQEFLEALTKHFQD [L42F] are within error of each other in abundance fitness: -0.338 ± 0.077 for the first, -0.182 ± 0.48 for the second.

EYSEEELKTHISKGTLGKFTVPMLKEACRAYGLKSGLKKQELAEALTKHFQD [L43A] and EYSEEELKTHISKGTLGKFTVPMLKEACRAYGLKSGLKKQELCEALTKHFQD [L43C] are within error of each other in abundance fitness: -0.255 ± 0.044 for the first, -0.281 ± 0.097 for the second.

Compared with EYSEEELKTHISKGTLGKFTVPMLKEACRAYGLKSGLKKQELDEALTKHFQD [L43D], EYSEEELKTHISKGTLGKFTVPMLKEACRAYGLKSGLKKQELEEALTKHFQD [L43E] is higher in abundance fitness: -0.932 ± 0.24 for the first, -0.093 ± 0.079 for the second.

Compared with EYSEEELKTHISKGTLGKFTVPMLKEACRAYGLKSGLKKQELHEALTKHFQD [L43H], EYSEEELKTHISKGTLGKFTVPMLKEACRAYGLKSGLKKQELIEALTKHFQD [L43I] is higher in abundance fitness: -0.506 ± 0.074 for the first, -0.118 ± 0.13 for the second.

Compared with EYSEEELKTHISKGTLGKFTVPMLKEACRAYGLKSGLKKQELKEALTKHFQD [L43K], EYSEEELKTHISKGTLGKFTVPMLKEACRAYGLKSGLKKQELMEALTKHFQD [L43M] is higher in abundance fitness: -0.516 ± 0.16 for the first, 0.062 ± 0.061 for the second.

EYSEEELKTHISKGTLGKFTVPMLKEACRAYGLKSGLKKQELNEALTKHFQD [L43N] and EYSEEELKTHISKGTLGKFTVPMLKEACRAYGLKSGLKKQELPEALTKHFQD [L43P] are within error of each other in abundance fitness: -0.418 ± 0.15 for the first, -0.711 ± 0.32 for the second.

Compared with EYSEEELKTHISKGTLGKFTVPMLKEACRAYGLKSGLKKQELQEALTKHFQD [L43Q], EYSEEELKTHISKGTLGKFTVPMLKEACRAYGLKSGLKKQELREALTKHFQD [L43R] is lower in abundance fitness: 0.128 ± 0.1 for the first, -0.396 ± 0.059 for the second.

Compared with EYSEEELKTHISKGTLGKFTVPMLKEACRAYGLKSGLKKQELSEALTKHFQD [L43S], EYSEEELKTHISKGTLGKFTVPMLKEACRAYGLKSGLKKQELTEALTKHFQD [L43T] is higher in abundance fitness: -0.52 ± 0.093 for the first, -0.243 ± 0.063 for the second.

First: EYSEEELKTHISKGTLGKFTVPMLKEACRAYGLKSGLKKQELVEALTKHFQD [L43V]
Second: EYSEEELKTHISKGTLGKFTVPMLKEACRAYGLKSGLKKQELWEALTKHFQD [L43W]
The abundance fitness of the first is higher: 0.058 ± 0.048 for the first, -0.436 ± 0.082 for the second.

Going from EYSEEELKTHISKGTLGKFTVPMLKEACRAYGLKSGLKKQELYEALTKHFQD [L43Y] to EYSEEELKTHISKGTLGKFTVPMLKEACRAYGLKSGLKKQELLAALTKHFQD [E44A], the abundance fitness rises from -0.727 ± 0.19 to -0.143 ± 0.043.

Compared with EYSEEELKTHISKGTLGKFTVPMLKEACRAYGLKSGLKKQELLCALTKHFQD [E44C], EYSEEELKTHISKGTLGKFTVPMLKEACRAYGLKSGLKKQELLDALTKHFQD [E44D] is higher in abundance fitness: -0.194 ± 0.058 for the first, -0.002 ± 0.052 for the second.

EYSEEELKTHISKGTLGKFTVPMLKEACRAYGLKSGLKKQELLFALTKHFQD [E44F] and EYSEEELKTHISKGTLGKFTVPMLKEACRAYGLKSGLKKQELLGALTKHFQD [E44G] are within error of each other in abundance fitness: -0.213 ± 0.054 for the first, -0.193 ± 0.056 for the second.

EYSEEELKTHISKGTLGKFTVPMLKEACRAYGLKSGLKKQELLHALTKHFQD [E44H] and EYSEEELKTHISKGTLGKFTVPMLKEACRAYGLKSGLKKQELLIALTKHFQD [E44I] are within error of each other in abundance fitness: -0.198 ± 0.099 for the first, -0.358 ± 0.096 for the second.

Going from EYSEEELKTHISKGTLGKFTVPMLKEACRAYGLKSGLKKQELLKALTKHFQD [E44K] to EYSEEELKTHISKGTLGKFTVPMLKEACRAYGLKSGLKKQELLLALTKHFQD [E44L], the abundance fitness rises from -0.406 ± 0.092 to -0.2 ± 0.042.

EYSEEELKTHISKGTLGKFTVPMLKEACRAYGLKSGLKKQELLMALTKHFQD [E44M] and EYSEEELKTHISKGTLGKFTVPMLKEACRAYGLKSGLKKQELLNALTKHFQD [E44N] are within error of each other in abundance fitness: -0.128 ± 0.079 for the first, -0.065 ± 0.1 for the second.

EYSEEELKTHISKGTLGKFTVPMLKEACRAYGLKSGLKKQELLRALTKHFQD [E44R] and EYSEEELKTHISKGTLGKFTVPMLKEACRAYGLKSGLKKQELLSALTKHFQD [E44S] are within error of each other in abundance fitness: -0.234 ± 0.045 for the first, -0.149 ± 0.051 for the second.

Compared with EYSEEELKTHISKGTLGKFTVPMLKEACRAYGLKSGLKKQELLTALTKHFQD [E44T], EYSEEELKTHISKGTLGKFTVPMLKEACRAYGLKSGLKKQELLVALTKHFQD [E44V] is lower in abundance fitness: -0.165 ± 0.068 for the first, -0.332 ± 0.053 for the second.

Going from EYSEEELKTHISKGTLGKFTVPMLKEACRAYGLKSGLKKQELLWALTKHFQD [E44W] to EYSEEELKTHISKGTLGKFTVPMLKEACRAYGLKSGLKKQELLYALTKHFQD [E44Y], the abundance fitness rises from -0.27 ± 0.068 to -0.105 ± 0.07.

Reference: the Human Domainome abundance scans (Beltran et al. 2025)
